{"source": "patent US9931401B2", "about": "“Combination comprising anti-fibroblast growth factor receptor 2 (FGFR2) antibody and a tyrosine kinase inhibitor” (Daiichi Sankyo Company, Limited, priority 2013, dated 2018)", "key": {"SNU-16 cells": {"test_system": "SNU-16 cells", "test": "Amount of antigen FGFR2 on cell surface of SNU-16 treated with low-molecular compound (QIFIKIT)", "format": "cell-based, human", "conditions": "100 to 1000 nM; compared with untreated or DMSO-treated SNU-16 cells", "experimental": "This operation was repeated twice. […] The data was analyzed using Flowjo (manufactured by Tree Star Inc.)."}, "FGFR2": {"test_system": "FGFR2", "test": "In vivo expression level of antigen FGFR2 in SNU-16 tumor by Western blotting", "set-up": "species or system nude mouse", "conditions": "3 mg/kg or 30 mg/kg orally; day after administration; compared with untreated control group"}}, "note": "Entries after “also recorded” stand apart in the source; their conditions may differ."}
{"smiles": "COc1cc(CCc2cc(NC(=O)c3ccc(N4C[C@@H](C)N[C@@H](C)C4)cc3)n[nH]2)cc(OC)c1", "note": "[AZD4547, N-(5-(3,5-dimethoxyphenethyl)-1H-pyrazol-3-yl)-4-((3S,5R)-3,5-dimethylpiperazin-1-yl)benzamide]", "values": [{"measurement": "number of the antigen FGFR2 on cell surface", "setting": "SNU-16 cells", "result": "elevated; also recorded: increased"}, {"measurement": "expression level of the antigen FGFR2 in the SNU16 tumor", "setting": "FGFR2", "result": "increased"}]}
